Measured values reported in publication PMC7207076 (Biochemistry, 2020).

Molecular target: T1, KDM5A1–797 (Homo sapiens, UniProt P29375)
T1 sequence (P29375 1-797): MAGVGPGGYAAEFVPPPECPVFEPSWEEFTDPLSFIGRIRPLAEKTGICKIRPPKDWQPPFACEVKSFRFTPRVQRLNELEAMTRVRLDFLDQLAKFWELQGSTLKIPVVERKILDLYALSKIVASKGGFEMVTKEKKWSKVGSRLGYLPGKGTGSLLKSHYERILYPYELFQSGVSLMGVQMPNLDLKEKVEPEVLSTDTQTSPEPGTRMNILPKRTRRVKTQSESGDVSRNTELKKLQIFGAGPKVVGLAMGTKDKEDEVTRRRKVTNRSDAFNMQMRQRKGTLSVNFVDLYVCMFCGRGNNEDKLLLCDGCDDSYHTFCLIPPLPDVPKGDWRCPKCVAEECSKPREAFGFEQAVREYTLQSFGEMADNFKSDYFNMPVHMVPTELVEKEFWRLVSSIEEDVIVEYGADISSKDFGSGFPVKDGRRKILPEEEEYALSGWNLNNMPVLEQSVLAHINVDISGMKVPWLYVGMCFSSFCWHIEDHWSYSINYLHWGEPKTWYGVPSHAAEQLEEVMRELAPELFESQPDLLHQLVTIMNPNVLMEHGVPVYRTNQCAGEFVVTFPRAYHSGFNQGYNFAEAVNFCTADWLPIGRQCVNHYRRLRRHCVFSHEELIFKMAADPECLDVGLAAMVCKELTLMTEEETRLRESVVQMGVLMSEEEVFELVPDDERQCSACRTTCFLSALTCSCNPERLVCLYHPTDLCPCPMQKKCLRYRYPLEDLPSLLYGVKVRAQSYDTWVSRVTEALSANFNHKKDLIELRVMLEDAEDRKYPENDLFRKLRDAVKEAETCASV
Type: biochemical
Details: H3K4me3 basic patch (K14-K18) deletion/mutant/acetylated peptides

- fold increase of KMapp compared to the 18mer WT peptide: 4 fold
Substance: 18mer-K14acK18ac: 18mer H3K4me3 peptide with acetylated lysines 14 and 18
